Values quoted from earlier work as cited in publication PMC4603705, “A bioinspired peptide scaffold with high antibiotic activity and low in vivo toxicity” (Scientific Reports, 2015).

Settings: metabolic degradation; no reference given; cited from earlier work

Substance: vapreotide
- half-lives: 2 to 3 h
